Holding throughout (format): cell-based
One experiment is filed under the species Homo sapiens.
The target of experiment [1] is Orexin/Hypocretin receptor type 1 (Rattus norvegicus) (UniProt P56718). Conditions: CHO, filed as antagonist, time 120.0 min.
In experiment [2] the target is Orexin receptor type 2 (Rattus norvegicus) (UniProt P56719). Conditions: CHO, filed as antagonist, time 120.0 min.
The target in a further experiment is Orexin receptor type 2 (Homo sapiens, UniProt O43614). Conditions: CHO, filed as antagonist, time 120.0 min.

The chains behind the UniProt entries cited, without tags or fusion partners.
UniProt P56718, whole entry: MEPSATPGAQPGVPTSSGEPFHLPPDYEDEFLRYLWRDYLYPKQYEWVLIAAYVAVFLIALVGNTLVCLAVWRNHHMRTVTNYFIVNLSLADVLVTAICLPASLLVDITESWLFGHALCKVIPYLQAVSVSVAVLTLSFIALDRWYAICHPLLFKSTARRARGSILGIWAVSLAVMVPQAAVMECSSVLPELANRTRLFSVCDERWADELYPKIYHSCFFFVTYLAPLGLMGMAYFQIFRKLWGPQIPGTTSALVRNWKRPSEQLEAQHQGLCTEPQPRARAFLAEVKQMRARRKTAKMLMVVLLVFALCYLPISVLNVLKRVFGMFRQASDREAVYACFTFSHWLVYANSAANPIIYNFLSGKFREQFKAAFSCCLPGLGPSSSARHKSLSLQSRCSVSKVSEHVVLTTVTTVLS
UniProt P56719, whole entry: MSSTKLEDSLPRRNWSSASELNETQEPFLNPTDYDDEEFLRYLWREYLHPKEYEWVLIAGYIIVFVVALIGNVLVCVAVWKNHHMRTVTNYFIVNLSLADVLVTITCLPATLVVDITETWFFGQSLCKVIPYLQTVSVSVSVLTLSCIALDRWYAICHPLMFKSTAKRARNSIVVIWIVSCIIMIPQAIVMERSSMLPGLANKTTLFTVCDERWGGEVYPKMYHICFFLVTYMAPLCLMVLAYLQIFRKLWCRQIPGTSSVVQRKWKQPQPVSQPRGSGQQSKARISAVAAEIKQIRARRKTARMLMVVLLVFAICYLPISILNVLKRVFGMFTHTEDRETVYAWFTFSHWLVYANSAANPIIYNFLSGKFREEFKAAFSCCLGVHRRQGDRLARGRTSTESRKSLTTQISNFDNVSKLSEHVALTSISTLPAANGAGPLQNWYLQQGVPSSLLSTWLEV
UniProt O43614, whole entry: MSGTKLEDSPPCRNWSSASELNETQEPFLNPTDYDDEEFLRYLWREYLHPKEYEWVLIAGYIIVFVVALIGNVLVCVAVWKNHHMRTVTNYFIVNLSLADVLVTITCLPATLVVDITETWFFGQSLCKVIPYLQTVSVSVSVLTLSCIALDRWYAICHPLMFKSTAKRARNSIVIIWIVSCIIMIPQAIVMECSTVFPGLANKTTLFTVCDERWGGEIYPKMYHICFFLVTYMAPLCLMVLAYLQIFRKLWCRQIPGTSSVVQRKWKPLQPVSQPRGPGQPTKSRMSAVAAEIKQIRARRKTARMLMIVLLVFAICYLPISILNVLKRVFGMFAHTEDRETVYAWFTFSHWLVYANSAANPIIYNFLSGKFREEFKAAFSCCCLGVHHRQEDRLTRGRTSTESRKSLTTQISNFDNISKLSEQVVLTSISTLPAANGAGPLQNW

For orientation: Kb means the equilibrium dissociation constant of an antagonist, usually derived from a functional assay.

As for `Cc1ccc(C(=O)N2CCOC[C@H]2Cc2cccc(-n3nccn3)c2)c(-n2nccn2)c1` [NIVASOREXANT], the Ratio in the experiment listed under Homo sapiens worked out at 61. In experiment [1], this compound displayed a Kb of 0.7 nM.
With `Cc1ccc(C(=O)N2CCOC[C@H]2Cc2cc(-n3nccn3)ccc2F)c(-n2nccn2)c1`, the results for the antagonist equilibrium constant (Kb) (in experiment [2]; on Orexin receptor type 2; in experiment [1]) were 68 nM, 71 nM and 0.7 nM, respectively.

The record behind these values is ChEMBL document CHEMBL5537208, “Discovery of Nivasorexant (ACT-539313): The First Selective Orexin-1 Receptor Antagonist (SO1RA) Investigated in Clinical Trials” (J Med Chem, 2024).
